# Apparent affinities of Ab-14 variants for a coronavirus HR2 peptide

From the AlphaSeq antibody data of Li et al. 2023 (doi:10.1038/s41467-023-39022-2), copy in the FLAb collection.

Antigen: PDVDLGDISGINAS, a 14-residue peptide of the SARS-CoV-2 spike HR2 region.

Each scFv is VH, three GGGGS repeats, VL, as in the parent Ab-14, and differs from it in the CDRs of the heavy chain only.
VH: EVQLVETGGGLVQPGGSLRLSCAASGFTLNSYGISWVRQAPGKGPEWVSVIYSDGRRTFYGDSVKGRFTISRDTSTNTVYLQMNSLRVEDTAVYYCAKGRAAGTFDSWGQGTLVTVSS
VL: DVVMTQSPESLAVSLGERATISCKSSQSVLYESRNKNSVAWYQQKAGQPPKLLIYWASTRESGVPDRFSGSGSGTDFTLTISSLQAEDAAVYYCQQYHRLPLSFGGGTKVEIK

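The starting antibody came from a phage panning campaign against this peptide. The variants were designed computationally from a first round of random CDR variants and then made and measured. Several design methods are mixed in this list. AlphaSeq pools MATa yeast showing the antibodies with MATalpha yeast showing the peptide. Binding brings cells together so that they mate, and sequencing counts the barcode pairs among the diploids. A regression on co-assayed BCL2-family reference pairs converts the normalised counts of each replicate to an apparent Kd. There are six technical replicates.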

The parent's heavy chain CDRs are GFTLNSYGIS, VIYSDGRRTFYGDSVK, GRAAGTFDS; each variant's own CDRs replace them letter for letter. Each Kd is an estimate from the mating assay, the geometric mean of the replicates in which the pair was seen; lower is stronger. "nd" means that the variant was in the library but no mating with the target was seen in any replicate; the authors take this as a sign of poor binding, and no number exists. The parent sequence was in this pool as ten entries: three were never detected, three once, and four in most replicates, with averages from 2.2 nM to 240 nM. The range of this assay differs from that of the first round, and the authors advise against merging the two. In the paper, a design with two or fewer of six values counts as a poor binder. Nonspecific signal, from three strains lacking the peptide, appeared in 1% of pairings of all heavy chain designs, centred on 120 nM (5% of these signals below 7.0 nM); values are not corrected for it. For each scFv, signals with the empty controls are counted beside the result.

GFDLNEYGIS | VIYADGQRTAYVDSVK | GEVAGTFDV: 330 pM (6 of 6 replicates; controls 0 of 18).
GFDLNEYGIS | VIYADGRRTAYTDSVK | GNNAGTFDM: 600 pM (6 of 6 replicates; controls 0 of 18).
GFQLNSYGIS | VIYSDGRRTFYDDSVK | GRAAGTFDS: 6.0 nM (3 of 6 replicates; controls 0 of 18).
GFSLNSYGIS | VIYSDGRRTFYTDSVK | GRNAGTFDS: 5.2 nM (6 of 6 replicates; controls 0 of 18).
KFDLNSYGIS | VIYSDGRRTFYCDSVK | GQTAGTFDS: 12 nM (4 of 6 replicates; controls 0 of 18).
GFDIDEYGIS | VIYADGVRTFYADSVK | GTNAGTFDI: 110 pM (4 of 6 replicates; controls 0 of 18).
WFSLNEYGIS | VIYSDGRRTFYGDSVK | GRNAGTFDS: nd (0 of 6 replicates; controls 1 of 18).
GENLEEYGIS | VIYADGMRTQYAEKVK | GRQGGFFIK: nd (0 of 6 replicates; controls 0 of 18).
GFDLNEFGIS | VIYADGRQTFYTDNVK | GGNQGTFVN: 1.2 µM (2 of 6 replicates; controls 0 of 18).
GFSLNGYGIS | VIYSDGRRTFYSDSVK | GTAAGTFDS: 6.5 nM (6 of 6 replicates; controls 0 of 18).
GFDLNEYGIS | VIYADGQRTAYADKVK | GENAGTFDV: 530 pM (6 of 6 replicates; controls 0 of 18).
LHTLNSYGIS | VWYSDGRRTFYSDSVK | GRAGGTFDS: nd (0 of 6 replicates; controls 0 of 18).
GFDLNEYGIS | VIYADGRRTFYTDSVK | GTGAGTFDV: nd (0 of 6 replicates; controls 0 of 18).
GFELNNYGIS | VIYSDGRRTFYADSVK | GKTAGTFDS: 590 pM (6 of 6 replicates; controls 0 of 18).
GFTLNSYGIS | VIYSDGKRTFYIDSVK | GQVAGTFDT: 9.7 nM (2 of 6 replicates; controls 0 of 18).
GFTLNEYGIS | VIYSDGRRTFYGDSVK | GRAAGTFSS: nd (0 of 6 replicates; controls 0 of 18).
GFDLNEYGIS | VIYADGMRTAYQDSVK | GNQAGTFDV: 910 pM (6 of 6 replicates; controls 1 of 18).
GFDLNEYGIS | VIYADGRRTAYSDSVK | GANAGTFDV: 120 pM (6 of 6 replicates; controls 0 of 18).
GKNLNSYGIS | VIYSDGRRTFYGDQVK | GRTAGTFDS: 60 nM (3 of 6 replicates; controls 1 of 18).
GFTLNSYGIS | VIYSDGRRTFYGDSVK | GQAAGTNDS: nd (0 of 6 replicates; controls 1 of 18).
GFSLNSYGIS | VIYSDGRRTFYGDSVK | GHEAGTFDS: 570 pM (6 of 6 replicates; controls 0 of 18).
GFDIEEYGIS | VIYADGVRMMYASNFK | GKIAGTFLL: 49 nM (2 of 6 replicates; controls 0 of 18).
GFDLNSYGIS | VIYSDGRRTFYGDSVK | GEAAGTFDR: 110 nM (4 of 6 replicates; controls 0 of 18).
GFSLNEYGIS | VIYSDGRRTFYGDSVK | GRAAGTFDL: 950 pM (6 of 6 replicates; controls 0 of 18).
GFDLNSYGIS | VIYSDGRRTFYADQVK | GRNAGTFDS: 1.2 nM (6 of 6 replicates; controls 0 of 18).
GFTLESYGIS | VIYSDGRRVFYGDSVK | GRAAGTFDS: 78 nM (2 of 6 replicates; controls 0 of 18).
GFDIEEYGIS | VIYADGVRQAYKNKVK | GQIAGGQFD: nd (0 of 6 replicates; controls 0 of 18).
GFDLNSYGIS | VIYSDGRRTFYDDSVK | GRNAGTFDS: 2.3 nM (6 of 6 replicates; controls 2 of 18).
GFDLNEYGIS | VIYADGRRTQYIDSVK | GEAAGTFDE: 7.4 nM (6 of 6 replicates; controls 0 of 18).
GFDLNEYGIS | VIYADGRRTFYADSVK | GKNAGTFEV: 340 pM (6 of 6 replicates; controls 0 of 18).
GFNLEEVGIS | VIYADGLRSAYVDAVK | GGVVDVDFV: nd (0 of 6 replicates; controls 0 of 18).
GFTLNSYGIS | VIYSDGMRTFYSDQVK | GRTAGTFDS: 5.2 nM (6 of 6 replicates; controls 1 of 18).
GFDLNEYGIS | VIYADGMRTAYADSVK | GNVAGTFVQ: 250 pM (6 of 6 replicates; controls 1 of 18).
GFDLNEYGIS | VIYADGMRTAYADSVK | GETAGTFDV: 630 pM (6 of 6 replicates; controls 0 of 18).
GFNLDEQGIS | VIYADGVRCSYAQSVK | GKSSGVIDV: nd (0 of 6 replicates; controls 0 of 18).
GFFLNEYGIS | VIYSDGRRTFYADSVK | GRTAGTFDS: 2.1 nM (6 of 6 replicates; controls 1 of 18).
GFTLNSYGIS | VIYSDGLRTFYSDSVK | GRAAGTFDS: 8.0 nM (6 of 6 replicates; controls 0 of 18).
GFDLNEYGIS | VIYADGRRTAYVDSVK | GNVAGTFDM: 1.1 nM (6 of 6 replicates; controls 1 of 18).
GFDLNEYGIS | VIYADGFRTFYTDSVK | GEVAGTFDM: 570 pM (6 of 6 replicates; controls 1 of 18).
GFDIDEMGIS | VIYADGVRQAYKNNVK | GKNVGLSAL: 17 nM (6 of 6 replicates; controls 1 of 18).
GFDLDEYGIS | VIYADGVRMAYTDSVK | GNWSGRDML: 130 nM (1 of 6 replicates; controls 0 of 18).
GFDLNSYGIS | VIYSDGRRTFYGDHVK | GRTAGTFDA: 6.5 nM (6 of 6 replicates; controls 1 of 18).
GFDLNEYGIS | VIYADGIRTFYADSVK | GNNAGTFDV: 400 pM (6 of 6 replicates; controls 0 of 18).
GFTLNSYGIS | VIYSDGRRTFYSDSVK | GRAAGTFSS: 56 nM (4 of 6 replicates; controls 0 of 18).
GFDLNEYGIS | VIYADGVRTFYADSVK | GEIAGTFDV: 1.0 nM (6 of 6 replicates; controls 0 of 18).
GFDLNEYGIS | VIYADGQRTAYADSVK | GKHAGTFDS: 620 pM (6 of 6 replicates; controls 0 of 18).
LFTLNSYGIS | VIYSDGRKTQYGDSVK | GHAAGIFDS: nd (0 of 6 replicates; controls 0 of 18).

Again, the first 8 entries without any signal:

With WFSLNEYGIS | VIYSDGRRTFYGDSVK | GRNAGTFDS the result was nd (0 of 6 replicates; controls 1 of 18).
With GENLEEYGIS | VIYADGMRTQYAEKVK | GRQGGFFIK the result was nd (0 of 6 replicates; controls 0 of 18).
With LHTLNSYGIS | VWYSDGRRTFYSDSVK | GRAGGTFDS the result was nd (0 of 6 replicates; controls 0 of 18).
With GFDLNEYGIS | VIYADGRRTFYTDSVK | GTGAGTFDV the result was nd (0 of 6 replicates; controls 0 of 18).
With GFTLNEYGIS | VIYSDGRRTFYGDSVK | GRAAGTFSS the result was nd (0 of 6 replicates; controls 0 of 18).
With GFTLNSYGIS | VIYSDGRRTFYGDSVK | GQAAGTNDS the result was nd (0 of 6 replicates; controls 1 of 18).
With GFDIEEYGIS | VIYADGVRQAYKNKVK | GQIAGGQFD the result was nd (0 of 6 replicates; controls 0 of 18).
With GFNLEEVGIS | VIYADGLRSAYVDAVK | GGVVDVDFV the result was nd (0 of 6 replicates; controls 0 of 18).